# Results from patent publication US10543279B2, “Pyrrolobenzodiazepine conjugates and their use for the treatment of cancer” (priority 2016, dated 2020).
# How the values were obtained:
# [1] = tested on: subcutaneous JIMT-1 tumours; assay: JIMT-1 xenograft testing; assay type: in vivo, mice
# Method: (§1) (68-72° F.) and 40-60% humidity. […] The animal care and use program at CR Discovery Services is accredited by the Association for Assessment and Accreditation of Laboratory Animal Care International (AAALAC), which assures compliance with accepted standards for the care and use of laboratory animals.
# [2] = Single dose toxicity study in rat / Therapeutic Index; assay type: in vivo; settings: male rats, 1.5 mg/kg high dose group, single iv dose
# [3] = tested on: SKBR3; settings: breast carcinoma, ADC exposure 4 days, MTS
# Method: (§2) A set of 8×10-fold dilutions of stock ADC were made in a 24 well plate by serial transfer of 100 μl onto 900 μl of cell culture medium.
# [4] = tested on: BT474; settings: breast carcinoma, ADC exposure 5 days, MTS
# Method: as §2
# [5] = tested on: NCI-N87; settings: gastric carcinoma, ADC exposure 7 days, MTS
# Method: as §2
# [6] = tested on: subcutaneous BT474 tumors; assay: BT474 xenograft testing; assay type: in vivo, mice
# Method: as §1
# Tumors were measured in two dimensions using calipers, and volume was calculated using the formula: […]
# [7] = tested on: subcutaneous NCI-N87 tumours; assay: NCI-N87 xenograft testing; assay type: in vivo, mice
# Excerpt: Female severe combined immune-deficient mice (Fox Chase SCID®, C.B-17/Icr-Prkdcscid, Charles River) were ten weeks old with a body weight (BW) range of 16.2 to 21.9 grams on Day 1 of the study. The animals were fed ad libitum water (reverse osmosis, 1 ppm Cl), and NIH 31 Modified and Irradiated Lab Diet® consisting of 18.0% crude protein, 5.0% crude fat, and 5.0% crude fibre. The mice were housed on irradiated Enricho'Cobs™ Laboratory Animal Bedding in static micro-isolators on a 12-hour light cycle at 20-22° C. (68-72° F.) and 40-60% humidity. CR Discovery Services specifically complies with the recommendations of the Guide for Care and Use of Laboratory Animals with respect to restraint, husbandry, surgical procedures, feed and fluid regulation, and veterinary care. The animal care and use program at CR Discovery Services is accredited by the Association for Assessment and Accreditation of Laboratory Animal Care International (AAALAC), which assures compliance with accepted standards for the care and use of laboratory animals. […]
# The NCI-N87 cells used for implantation were harvested during log phase growth and Re-suspended in phosphate buffered saline (PBS) containing 50% Matrigel™ (BD Biosciences). On the day of tumour implant, each test mouse was injected subcutaneously in the right flank with 1×10^7 cells (0.1 mL cell suspension), and tumour growth was monitored as the average size approached the target range of 100 to 150 mm^3. Fourteen days later, designated as Day 1 of the study, mice were sorted according to calculated tumour size into groups each consisting of ten animals with individual tumour volumes ranging from 108 to 172 mm^3 and group mean tumour volumes of 133 mm^3.
# Tumours were measured in two dimensions using calipers, and volume was calculated using the formula:
# Treatment began on Day 1 in groups of 10 mice (n=10) with established subcutaneous NCI-N87 tumours (108-172 mm^3). […] Tumours were measured twice per week until the study was ended on Day 78. […] The time to endpoint (TTE) was calculated for each mouse. […]
substance,measurement,setting,value
trastuzumab-6,partial regressions (PR),"[1]; 0.3 mg/kg iv qd×1, n=10",one
same,partial regressions (PR),"[1]; 1.0 mg/kg iv qd×1, n=10",two
same,"complete regressions (CR), remained tumour-free survivors (TFS) at study end","[1]; 1.0 mg/kg iv qd×1, n=10, Day 64",three
same,adverse findings,[2],minimal adverse findings
same,IC50 (μg/ml) in SKBR3,[3],0.085 µg/mL
same,IC50 (μg/ml) in BT474,[4],1.935 µg/mL
same,IC50 (μg/ml) in NCI-N87,[5],0.024 µg/mL
same,partial regressions (PR),"[6]; 0.3 mg/kg iv qd×1, n=10",four
same,partial regressions (PR),"[6]; 1.0 mg/kg iv qd×1, n=10",seven
same,"complete regressions (CR), remained tumour-free survivor (TFS) at study end","[6]; 1.0 mg/kg iv qd×1, n=10, Day 60",one
same,partial regressions (PR),"[7]; 0.4 mg/kg iv qd×1, n=10",one
same,partial regressions (PR),"[7]; 0.6 mg/kg iv qd×1, n=10",three
same,minimum effective dose (tumour stasis for twenty-eight days),"[7]; SCID mice, iv qd×1, visual inspection of tumour volume plots",0.4 mg/kg
